From patent publication US10975037B2 (priority 2018, dated 2021) come the findings set out here.

Amino acid sequences for entries named in this document (tags omitted). Chains listed by the source or under a name are the forms on record and can include a tag or linker.
UniProt P51449, other isoform, or with tags, fused parts or gaps: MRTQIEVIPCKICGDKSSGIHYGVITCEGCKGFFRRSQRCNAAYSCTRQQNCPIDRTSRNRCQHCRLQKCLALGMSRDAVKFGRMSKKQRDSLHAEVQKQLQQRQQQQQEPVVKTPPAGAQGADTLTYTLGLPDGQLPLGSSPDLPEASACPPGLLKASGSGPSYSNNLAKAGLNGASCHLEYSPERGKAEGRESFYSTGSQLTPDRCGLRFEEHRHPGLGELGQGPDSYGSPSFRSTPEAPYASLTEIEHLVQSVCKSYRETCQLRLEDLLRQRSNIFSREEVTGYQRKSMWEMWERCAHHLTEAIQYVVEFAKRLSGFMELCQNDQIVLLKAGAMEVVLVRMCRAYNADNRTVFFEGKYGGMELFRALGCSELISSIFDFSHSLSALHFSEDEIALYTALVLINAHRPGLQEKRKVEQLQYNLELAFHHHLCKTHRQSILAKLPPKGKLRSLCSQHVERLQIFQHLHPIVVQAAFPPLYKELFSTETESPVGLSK

Each structure is given as a SMILES string.

The term inhibition denotes the change of the read-out against control, counted positive when it falls.

The target in this experiment is full-length human RORγt (Homo sapiens (Human), UniProt P51449). Kind of experiment: RORγt (full-length human) reporter assay, conditions A or B, HEK293T cells. The class given is cell-based. Conditions: HEK-293T; 3 μM compound concentration (footnote *); read-out: RORγt (FL) Reporter Assay A or B, % inhibition. As for the experimental part: RORγt (Full-Length Human) Reporter Assay:
(§1) HEK293T cells were plated at 35,000 per well in 96-well plate in medium of DMEM with 10% FBS. […] After overnight (16 to 20 hours) incubation, media were removed and cells were lysed with 50 L Glo Lysis Buffer (Promega) for 10-15 minutes followed by 10 minute incubation with 50 μL Dual Glo reagent (Promega) at room temperature. Firefly luciferase luminescence was measured using a BMG Pherastar plate reader. To each well, 50 μL Stop and Glo reagent was added and incubated for 10 minutes at room temperature. Renilla luminescence was measured using a BMG Pherastar plate reader. To calculate the effect of compounds on RORγt activity, firefly values were normalized against values of DMSO only and values of reference compound at saturating concentration, then further normalized against Renilla signals. IC50s were generated by plotting final Renilla normalized data against compound concentration and percent inhibition was calculated against DMSO control.
as §1, with “at 8750 cells” for “at 35,000”, “in 384-well” for “in 96-well”, “with 20” for “with 50”, “well, 20” for “well, 50”
On to `CCn1nc(C(=O)NC[C@H]2CC[C@H](S(C)(=O)=O)CN2C(C)=O)c(Cl)c1-c1ccc(CC(C)(C)C(F)(F)F)cc1OC(F)F` (stereo in doubt) [Example 66, N-(((2R*,5S*)-1-Acetyl-5-(methylsulfonyl)piperidin-2-yl)methyl)-4-chloro-5-(2-(difluoromethoxy)-4-(3,3,3-trifluoro-2,2-dimethylpropyl)phenyl)-1-ethyl-1H-pyrazole-3-carboxamide], for which the inhibition at 3 µM is 89%. `Cc1c(C(=O)NC[C@H]2CC[C@H](S(C)(=O)=O)CC2)nn(CC(C)(C)O)c1-c1ccc(CC(C)(C)C(F)(F)F)cc1OC(F)F` [Example 147, 5-(2-(Difluoromethoxy)-4-(3,3,3-trifluoro-2,2-dimethylpropyl)phenyl)-1-(2-hydroxy-2-methylpropyl)-4-methyl-N-(((1r,4r)-4-(methylsulfonyl)cyclohexyl)methyl)-1H-pyrazole-3-carboxamide]: the inhibition at 3 µM came out at 108%. Then `CCn1nc(C(=O)NC[C@@H]2CC[C@@H](S(C)(=O)=O)CN2C(C)=O)c(Cl)c1-c1ccc(CC(C)(C)C(F)(F)F)cc1OC(F)F` (stereo in doubt) [Example 65, N-(((2S*,5R*)-1-Acetyl-5-(methylsulfonyl)piperidin-2-yl)methyl)-4-chloro-5-(2-(difluoromethoxy)-4-(3,3,3-trifluoro-2,2-dimethylpropyl)phenyl)-1-ethyl-1H-pyrazole-3-carboxamide], with 106%.
